{
  "sequences": {"note": "Chains of the proteins cited; added tags and fusions are not shown. Lines headed by an entry give the natural chain unless they say otherwise; changes in a name come on top. Residues count along the entry.", "UniProt P15056, 416-766": "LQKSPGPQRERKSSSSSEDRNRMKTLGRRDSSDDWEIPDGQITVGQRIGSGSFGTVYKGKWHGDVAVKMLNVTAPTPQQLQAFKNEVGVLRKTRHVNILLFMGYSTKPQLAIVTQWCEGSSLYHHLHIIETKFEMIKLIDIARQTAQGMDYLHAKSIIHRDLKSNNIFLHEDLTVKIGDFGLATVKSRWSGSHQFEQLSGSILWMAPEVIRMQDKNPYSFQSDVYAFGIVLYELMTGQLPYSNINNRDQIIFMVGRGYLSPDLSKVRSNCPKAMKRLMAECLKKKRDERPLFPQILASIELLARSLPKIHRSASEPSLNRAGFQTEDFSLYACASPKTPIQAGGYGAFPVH", "UniProt P04049, 307-648 Y340D/Y341D": "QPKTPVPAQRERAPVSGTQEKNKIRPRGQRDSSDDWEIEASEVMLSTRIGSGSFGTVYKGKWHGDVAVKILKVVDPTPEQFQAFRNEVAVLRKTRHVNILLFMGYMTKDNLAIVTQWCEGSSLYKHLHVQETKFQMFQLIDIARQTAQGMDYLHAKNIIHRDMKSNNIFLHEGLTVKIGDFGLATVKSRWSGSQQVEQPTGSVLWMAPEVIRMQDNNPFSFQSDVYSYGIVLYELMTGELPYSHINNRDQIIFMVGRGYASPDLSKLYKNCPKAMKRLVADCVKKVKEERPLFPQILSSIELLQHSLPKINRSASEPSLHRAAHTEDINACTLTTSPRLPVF"},
  "source": "patent US20260226084A1",
  "about": "“DUAL RAF AND TUBULIN INHIBITORS AND METHODS OF USE THEREOF” (Deciphera Pharmaceuticals, LLC, priority 2023, published 2026)",
  "key": {"Pa16c cells": {"system": "Pa16c cells", "assay": "Pa16c Cell Proliferation Assay", "details": "read-out: Inhibition of cell proliferation in Pa16c (IC50 class), Table 2"}, "[1]": {"molecular_target": "B-Raf kinase (SEQ ID NO: 1) (Homo sapiens, UniProt P15056)", "assay": "Biochemical Assay for B-Raf (coupled pyruvate kinase/lactate dehydrogenase assay)", "details": "read-out: BRAF (inhibition of biochemical activity, IC50); 1 mM ATP"}, "HPAF-II cells": {"system": "HPAF-II cells", "assay": "HPAF-II Cell Proliferation Assay", "details": "read-out: Inhibition of cell proliferation in HPAF-II (IC50 class), Table 2"}, "MiaPaca-2 cells": {"system": "MiaPaca-2 cells", "assay": "MiaPaca-2 Cell Proliferation Assay", "details": "read-out: Inhibition of cell proliferation in MiaPaca-2 (IC50 class), Table 2"}, "HCT-116 cells": {"system": "HCT-116 cells", "assay": "HCT-116 Cell Proliferation Assay", "details": "read-out: Inhibition of cell proliferation in HCT-116 (IC50 class), Table 2"}, "[2]": {"molecular_target": "C-Raf kinase (SEQ ID NO: 2) (Homo sapiens, UniProt P04049, Y340D/Y341D)", "assay": "Biochemical Assay for C-Raf (coupled pyruvate kinase/lactate dehydrogenase assay)", "details": "read-out: CRAF (inhibition of biochemical activity, IC50); 1 mM ATP"}},
  "data": [
    {"smiles": "Cc1ccc(NC(=O)c2cc(C(F)(F)F)cnn2)cc1-c1cncc(-c2cc(NC(=O)C3CC3)ncn2)c1", "values": [
      {"measurement": "IC50", "setting": "Pa16c cells", "result": "1000 to 10000", "unit": "nM"},
      {"measurement": "IC50", "setting": "[1]", "result": "< 100", "unit": "nM"},
      {"measurement": "IC50", "setting": "HPAF-II cells", "result": "100 to 500", "unit": "nM"},
      {"measurement": "IC50", "setting": "MiaPaca-2 cells", "result": "100 to 500", "unit": "nM"},
      {"measurement": "IC50", "setting": "HCT-116 cells", "result": "< 100", "unit": "nM"},
      {"measurement": "IC50", "setting": "[2]", "result": "< 100", "unit": "nM"}
    ]}
  ]
}
